From article PMC9306920 (Clinical Pharmacology in Drug Development, 2022)
Where “and” joins values, the source holds several entries; their conditions need not be identical. Equal values may be shown once. Read-outs that look alike come from different tables or passages of the source.

Key:
healthy subjects [1] = system: healthy subjects
healthy subjects [2] = system: healthy subjects; remark: listed apart in the source
[3] = human PK studies, oral; cited from earlier work
healthy subjects [4] = details: for LS mean ΔPR: 0.5 hours after dosing; for Largest LS mean ΔΔQTcF: 2 hours after dosing; for Largest LS mean ΔHR: 6 hours after dosing
[5] = Plasma pharmacokinetics in thorough QT study; assay type: in vivo, human; details: for Cmax, geometric mean: fasted; for Cmax, geometric mean / AUC0-inf, arithmetic mean / AUC0-inf, geometric mean / AUC0-t, arithmetic mean / AUC0-t, geometric mean / Cmax, arithmetic mean / t1/2, arithmetic mean / tmax, median: plasma, n = 39
[6] = deucravacitinib 36 mg, 1 hour after dosing
[7] = 36 mg versus 12 mg (3-fold increase in dose)
[8] = deucravacitinib 12 mg single oral dose
[9] = deucravacitinib 36 mg single oral dose

## Deucravacitinib
Healthy subjects [1]; concentration-QTc analysis
  Plasma concentration for which ΔΔQTcF exceeding 10 milliseconds was excluded: at least 500 ng/mL
Healthy subjects [1]; deucravacitinib 36 mg, Cmax 315 ng/mL
  Predicted ΔΔQTcF at observed geometric mean Cmax: 2.1 milliseconds
Healthy subjects [1]; deucravacitinib 12 and 36 mg
  Intercept of concentration-ΔΔQTcF model: 0.2 milliseconds and 0.19 milliseconds
Healthy subjects [1]; deucravacitinib 12 and 36 mg, plasma concentration
  Estimated population slope of concentration-ΔΔQTcF model: 0.0059 milliseconds per ng/mL
Healthy subjects [2]; deucravacitinib 12 mg
  Subjects with AEs, number: 5 subjects
  Subjects with AEs, percentage: 12.8%
  Subjects with headache (most frequent AE), percentage: 7.7%
  Subjects with treatment-related AEs: 4 subjects
  Treatment-related AEs, number of AEs: 8 AEs
Healthy subjects [2]; deucravacitinib 12 mg, in 1 subject after fourth and final treatment
  SAEs considered related to the study drug (severe pharyngitis, lymphadenopathy, cellulitis): 3 SAEs
Healthy subjects [2]; deucravacitinib 36 mg
  Subjects with AEs, number: 8 subjects
  Subjects with AEs, percentage: 20.5%
  Subjects with headache (most frequent AE), percentage: 15.4%
  Subjects with moderate bilateral otitis externa considered related to study drug: 1 subject
  Subjects with treatment-related AEs: 7 subjects
  Treatment-related AEs, number of AEs: 9 AEs
Healthy subjects [2]; single oral doses of 12 and 36 mg
  Overall tolerability: generally well tolerated
[3]
  Absorption (near complete): 99%
  tmax: 1 h
Healthy subjects [4]; any treatment, any time point
  Subjects with QTcF of >450 milliseconds or ΔQTcF of >30 milliseconds: No subject
Healthy subjects [4]; deucravacitinib 12 mg
  LS mean ΔPR: 0.2 milliseconds
  Largest LS mean ΔΔQTcF: 0.8 milliseconds
  Largest LS mean ΔHR: 8.2 bpm
Healthy subjects [4]; deucravacitinib 12 mg, 1 hour after dosing
  Largest LS mean ΔΔHR: 0.6 bpm
Healthy subjects [4]; deucravacitinib 12 mg, 3 hours after dosing
  Largest LS mean ΔQTcF: −1.7 milliseconds
Healthy subjects [4]; deucravacitinib 12 mg, all time points
  LS mean ΔQRS: ≤ 0.1 milliseconds
Healthy subjects [4]; deucravacitinib 36 mg
  LS mean ΔPR: 0.2 milliseconds
  Largest LS mean ΔΔQTcF: 3.0 milliseconds
  Largest LS mean ΔHR: 8.7 bpm
Healthy subjects [4]; [6]
  Largest LS mean ΔQTcF: 0.2 milliseconds
  Largest LS mean ΔΔHR: 4.0 bpm
Healthy subjects [4]; deucravacitinib 36 mg, all time points
  LS mean ΔQRS: ≤ 0.1 milliseconds
Healthy subjects [4]; deucravacitinib 12 and 36 mg, all time points
  Upper bound of 2-sided 90%CI for ΔΔQTcF: < 10 milliseconds
Healthy subjects [4]; deucravacitinib at tested doses (12 and 36 mg)
  Clinically meaningful QTcF prolongation of >10 milliseconds: not found
Healthy subjects [4]; during the study
  U-wave presence: No U‐wave observations
Healthy subjects [4]; versus placebo
  Frequencies of flat, notched, and biphasic T-wave morphologies: lower than or the same as for placebo
[5]; [7]
  Increase in geometric mean AUC from time 0 extrapolated to infinite time: 3.4 fold
  Increase in geometric mean Cmax: 3.4 fold
[5]; [8]
  Cmax, geometric mean: 91.9 ng/mL
  AUC0-inf, arithmetic mean: 946 ng·h/mL
  AUC0-inf, geometric mean: 910 ng·h/mL
  AUC0-t, arithmetic mean: 928 ng·h/mL
  AUC0-t, geometric mean: 892 ng·h/mL
  Cmax, arithmetic mean: 95.3 ng/mL
  t1/2, arithmetic mean: 13.4 h
  tmax, median: 2.60 h
[5]; [9]
  Cmax, geometric mean: 315 ng/mL
  AUC0-inf, arithmetic mean: 3201 ng·h/mL
  AUC0-inf, geometric mean: 3084 ng·h/mL
  AUC0-t, arithmetic mean: 3177 ng·h/mL
  AUC0-t, geometric mean: 3060 ng·h/mL
  Cmax, arithmetic mean: 324 ng/mL
  t1/2, arithmetic mean: 13.0 h
  tmax, median: 2.10 h
[5]; deucravacitinib 12 and 36 mg single oral dose
  tmax: < 3 h
